Molecular target: human FSH receptor (Homo sapiens, UniProt P23945)
Assay: hFSHR CHO cAMP assay (rhFSHR-cLUC cells, FSH-stimulated cAMP, radioimmunoassay)
Settings: read-out: EC50 hFSHR CHO cAMP; inhibition of cAMP produced by EC70 dose of FSH (4.85 nM); maximum concentration 50 μM
Description: Minimum Essential Medium-Alpha (MEM-alpha), fetal bovine serum (FBS), penicillin, streptomycin, geneticin, trypsin-EDTA, Hanks' Balanced Salt Solution (no Calcium chloride, Magnesium chloride, Magnesium sulfate, or phenol red; Ca-Mg free HBSS) were purchased from Gibco BRL (Gaithersburg, Md.). The cells used for the FSH bioassay (rhFSHR-cLUC) were Chinese Hamster Ovary cells (K-1; ATCC) stably transformed with human FSH receptor (pSVK-FSHr) and a cAMP luciferase reporter gene (responsive CGα-180LUC). Follicle Stimulating Hormone (Metrodin; Fertinex) was purchased from Serono, Ltd. (Norwell, Mass.).
The rhFSHR-cLUC cell cultures were maintained in MEM-Alpha supplemented with 10% heat-inactivated FBS (HIFBS), 100 U/ml penicillin, 100 μg/mL streptomycin, and included 0.1 g/L geneticin for stable cell selection.
Forty-eight hours after the cells were plated in sterile 96-well culture plates (Corning, Corning, N.Y.) the spent media was removed and 50 μl assay media (modified growth media with 2% HIFBS) containing 2 mM IBMX (3-isobutyl-1-methyl-xanthine) was added to the cells. Compounds (25 μl) in the appropriate concentration were added followed 5 minutes later by an EC70 dose of FSH (25 μl; 160 ng/ml; 4.85 nM). After 10 minutes @ 22.5° C. (room temperature) the reaction was terminated by addition of 25 μL 0.5 N hydrochloric acid to each well. The amount of cAMP produced was measured by radioimmunoassay in a FlashPlate (DuPont, Boston, Mass.). To each flash plate 60 μL flash plate buffer was added followed by 40 μL acidified cell sample or cAMP standard, followed with the addition of 100 μl ^125l-cAMP trace. The FlashPlates were sealed, incubated overnight @ room temperature, and counted in a Packard TopCount (Packard Instrument Co., Meriden, Conn.). The cAMP radioimmunoassay results were calculated using DPM conversion and log-logit transformation of % binding (Excel program).
Test compounds were solubilized in 30% dimethyl sulfoxide (DMSO) at a concentration of 10 mM before diluting to appropriate concentrations in assay medium. The final DMSO concentration in the treated cells and in the control cells was 0.75%.
For individual experiments, a set of samples were tested including a vehicle control (assay buffer), a reference compound (hFSH) at a range of concentrations designed to elicit a minimal to maximal response, and several concentrations of test compounds together with an EC70 concentration of standard (hFSH challenge). Each compound was performed in duplicates for the primary evaluation and quadruplicates for the dose-ranging experiments. The cAMP radioimmunoassay raw data (pmol) were calculated to provide average pmol cAMP produced/ml and the percent inhibition was calculated as shown below.
% Inh=[1−(Avg.pmoltest compound+standard)/(Avg.pmolstandard)]×100
EC50 values were calculated from an analysis of the concentration-inhibition data using a linear analysis of the data transformed to a log-logit format.

Amino acid sequences for entries named in this document (tags omitted). Residues count along the entry.
UniProt P23945, 18-695 limits assumed: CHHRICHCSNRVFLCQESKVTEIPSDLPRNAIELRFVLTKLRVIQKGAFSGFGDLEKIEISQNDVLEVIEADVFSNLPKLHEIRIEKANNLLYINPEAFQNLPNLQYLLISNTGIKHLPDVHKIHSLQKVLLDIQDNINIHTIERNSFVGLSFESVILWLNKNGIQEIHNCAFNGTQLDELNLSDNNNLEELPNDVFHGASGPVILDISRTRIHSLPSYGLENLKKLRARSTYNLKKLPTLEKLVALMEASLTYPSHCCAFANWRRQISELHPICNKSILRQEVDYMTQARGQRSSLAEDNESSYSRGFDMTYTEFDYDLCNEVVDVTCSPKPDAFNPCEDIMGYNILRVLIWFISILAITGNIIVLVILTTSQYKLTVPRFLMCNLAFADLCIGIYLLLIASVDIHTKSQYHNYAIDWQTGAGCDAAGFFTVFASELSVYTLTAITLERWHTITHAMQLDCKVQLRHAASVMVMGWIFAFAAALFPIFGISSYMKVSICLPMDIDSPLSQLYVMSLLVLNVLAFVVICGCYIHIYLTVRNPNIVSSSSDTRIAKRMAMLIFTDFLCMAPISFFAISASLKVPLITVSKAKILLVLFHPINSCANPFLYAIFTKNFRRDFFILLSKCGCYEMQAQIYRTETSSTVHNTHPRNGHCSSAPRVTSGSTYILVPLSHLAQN

SMILES | EC50
Cc1ccccc1-c1ccc(S(=O)(=O)N(CCc2ccccc2)CC(=O)NCc2ccc(CN)cc2)cc1 | 290 nM
COc1ccccc1CCN(CC(=O)NCc1ccc(CN)cc1)S(=O)(=O)c1ccccc1-c1ccc(F)cc1 | 5860 nM
COc1ccc(-c2ccc(S(=O)(=O)N(CC(=O)N3CCNCC3)Cc3ccccc3OC)cc2)c(OC)c1 | ≥ 50000 nM
C[C@@H](CN(CC(=O)NCc1ccc(CN)cc1)S(=O)(=O)c1ccc(-c2csc3ccccc23)cc1)c1ccccc1 | 640 nM
C[C@@H](CN(CC(=O)NCc1ccc(CN)cc1)S(=O)(=O)c1ccc(-c2cccc(C(=O)O)c2)cc1)c1ccccc1 | ≥ 50000 nM
COc1ccccc1CCN(CC(=O)NCc1ccc(CN)cc1)S(=O)(=O)c1ccc(-c2ccc(OC)c(OC)c2OC)s1 | 680 nM
Cc1ccccc1-c1ccc(S(=O)(=O)N(CC(=O)NCc2cccc(CN)c2)C[C@@H](C)c2ccccc2)cc1 | 90 nM
C[C@H](CN(CC(=O)NCc1cccc(CN)c1)S(=O)(=O)c1ccc(-c2ccccc2Cl)cc1)c1ccccc1 | 720 nM
COc1ccccc1CCN(CC(=O)NCc1ccc(CN)cc1)S(=O)(=O)c1ccccc1-c1cccc(Cl)c1 | 5820 nM
C[C@@H](CN(CC(=O)NCc1ccc(CN)cc1)S(=O)(=O)c1ccc(-c2cc3ccccc3o2)cc1)c1ccccc1 | > 50000 nM
COc1ccccc1CCN(CC(=O)NCc1ccc(CN)cc1)S(=O)(=O)c1ccc(C)cc1 | 23500 nM
COc1ccccc1CCN(CC(=O)N1CCNCC1)S(=O)(=O)c1ccc(-c2ccc(C#N)cc2)cc1 | 3480 nM
COc1ccccc1CCN(CC(=O)NCc1ccc(CN)cc1)S(=O)(=O)c1ccc(-c2c(C)noc2C)s1 | 5680 nM
COc1cccc(-c2ccc(S(=O)(=O)N(CC(=O)N3CCNCC3)Cc3ccccc3OC)cc2)c1 | 32300 nM
C[C@@H](CN(CC(=O)NCc1ccc(CN)cc1)C(=O)c1ccc(-c2cccc(F)c2)cc1)c1ccccc1 | 13200 nM
COc1ccc(-c2ccc(S(=O)(=O)N(CC(=O)NCc3ccc(CN)cc3)C[C@@H](C)c3ccccc3)cc2)cc1 | 160 nM
COc1ccccc1CCN(CC(=O)N1CCNCC1)S(=O)(=O)c1ccc(-c2cccc(Cl)c2)cc1 | 9090 nM
COc1cccc(CN(CC(=O)NCC2CCC(CN)CC2)S(=O)(=O)c2ccc(-c3cccc(F)c3)cc2)c1 (centres unmarked) | 1410 nM
COc1ccc(OC)c(-c2ccccc2S(=O)(=O)N(CCc2ccccc2OC)CC(=O)NCc2ccc(CN)cc2)c1 | 10500 nM
COc1ccccc1CCN(CC(=O)NCc1ccc(CN)cc1)S(=O)(=O)c1cccs1 | 8060 nM
COc1ccccc1CCN(CC(=O)NCc1ccc(CN)cc1)S(=O)(=O)c1ccccc1-c1ccncc1 | 8660 nM
C[C@@H](CN(CC(=O)NCc1ccc(CN)cc1)S(=O)(=O)c1ccc(-c2ccc(Cl)c(F)c2)cc1)c1ccccc1 | 860 nM

SMILES | EC50
NCc1ccc(CNC(=O)CN(CCC2=CCCCC2)S(=O)(=O)c2ccc(-c3ccccc3Cl)cc2)cc1 | 2330 nM
COc1ccc(S(=O)(=O)N(CCc2ccccc2OC)CC(=O)NCc2ccc(CN)cc2)cc1 | 4980 nM
NCc1ccc(CNC(=O)CN(CCc2ccccc2C(F)(F)F)S(=O)(=O)c2ccc(-c3ccccc3Cl)cc2)cc1 | 1080 nM
COc1ccccc1CN(CC(=O)N1CCNCC1)S(=O)(=O)c1ccc(-c2ccc3c(c2)OCO3)cc1 | ≥ 50000 nM
COc1cc(CCN(CC(=O)NCc2ccc(CN)cc2)S(=O)(=O)c2ccc(-c3ccccc3Cl)cc2)cc(OC)c1 | 450 nM
COc1ccccc1CCN(CC(=O)NCc1ccc(CN)cc1)S(=O)(=O)c1ccccc1C(F)(F)F | 8410 nM
COc1ccccc1CCN(CC(=O)NCc1ccc(CN)cc1)S(=O)(=O)c1cccc(-c2cccnc2)c1 | 8270 nM
COc1ccccc1CCN(CC(=O)NCc1ccc(CN)cc1)S(=O)(=O)c1cccc(-c2ccc(C#N)cc2)c1 [265] | 2690 nM
COc1ccccc1CCN(CC(=O)NCc1ccc(CN)cc1)S(=O)(=O)c1cccc(-c2cccc(Cl)c2)c1 | 2980 nM
Cc1cccc(Cl)c1-c1ccc(S(=O)(=O)N(CC(=O)NCc2ccc(CN)cc2)C[C@H](C)c2ccccc2)cc1 | 760 nM
COc1ccccc1CN(CC(=O)N1CCNCC1)S(=O)(=O)c1ccc(-c2cccc(N)c2)cc1 | ≥ 50000 nM
COc1ccccc1CCN(CC(=O)NCc1ccc(CN)cc1)S(=O)(=O)c1cc([N+](=O)[O-])c(Cl)s1 | ≥ 50000 nM
COc1ccccc1CCN(CC(=O)N1CCNCC1)S(=O)(=O)c1ccc(-c2cccc(N)c2)cc1 | 8660 nM
C[C@H](CN(CC(=O)NCc1ccc(CN)cc1)S(=O)(=O)c1ccc(-c2ccccc2C(F)(F)F)cc1)c1ccccc1 | 340 nM
COc1cc(CCN(CC(=O)NCc2ccc(CN)cc2)S(=O)(=O)c2ccc(-c3ccccc3Cl)cc2)cc(Br)c1OC | 110 nM
COc1ccccc1CCN(CC(=O)NCc1ccc(CN)cc1)S(=O)(=O)c1ccc(C(F)(F)F)cc1 | 5000 nM
NCCCCCCNC(=O)CN(CCc1ccc(Cl)c(Cl)c1)S(=O)(=O)c1ccc(-c2ccccc2Cl)cc1 | 1060 nM
COc1ccccc1CCN(CC(=O)NCc1ccc(CN)cc1)S(=O)(=O)c1ccccc1-c1cccc(N)c1 | 5500 nM
NCc1ccc(CNC(=O)CN(CCc2ccccn2)S(=O)(=O)c2ccc(-c3ccccc3Cl)cc2)cc1 | 820 nM
Cc1ccc(Cl)c(-c2ccc(S(=O)(=O)N(CC(=O)NCc3ccc(CN)cc3)C[C@H](C)c3ccccc3)cc2)c1 | 410 nM
C[C@@H](CN(CC(=O)NCc1ccc(CN)cc1)S(=O)(=O)c1ccc(-c2ccc(Cl)cc2Cl)cc1)c1ccccc1 [303] | 440 nM
Cc1ccccc1-c1ccc(S(=O)(=O)N(CC(=O)N2CCC(C3CCNCC3)CC2)C[C@@H](C)c2ccccc2)cc1 | 750 nM

SMILES | EC50
COc1ccccc1CCN(CC(=O)N1CCNCC1)S(=O)(=O)c1ccc(-c2ccc3c(c2)OCO3)cc1 | 2230 nM
C[C@@H](CN(CC(=O)NCc1ccc(CN)cc1)S(=O)(=O)c1ccc(-c2ccc(F)c(Cl)c2)cc1)c1ccccc1 | 420 nM
COc1ccccc1CN(CC(=O)N1CCNCC1)S(=O)(=O)c1ccc(-c2ccncc2)cc1 | ≥ 50000 nM
C[C@H](CN(CC(=O)NCc1ccc(CN)cc1)S(=O)(=O)c1ccc(-c2cccc(Cl)c2)cc1)c1ccccc1 | 770 nM
COc1ccccc1CCN(CC(=O)N1CCNCC1)S(=O)(=O)c1ccc(-c2ccc(C)cc2)cc1 | 10300 nM
COc1ccccc1CCN(CC(=O)NCc1ccc(CN)cc1)S(=O)(=O)c1ccc(-c2cnc(SC)nc2)s1 | 1730 nM
C[C@H](CN(CC(=O)NCc1ccc(CN)cc1)S(=O)(=O)c1ccc(C(F)(F)F)cc1)c1ccccc1 | 740 nM
Cc1ccccc1-c1ccc(S(=O)(=O)N(CC(=O)NCCCCCN)C[C@@H](C)c2ccccc2)cc1 | 450 nM
COc1ccccc1CCN(CC(=O)NCc1ccc(CN)cc1)S(=O)(=O)c1ccccc1-c1ccc(C(F)(F)F)cc1 | 7450 nM
Cc1ccccc1-c1ccc(S(=O)(=O)N(CC(=O)NCCCCCCN)C[C@@H](C)c2ccccc2)cc1 | 230 nM
COc1cccc(-c2ccc(S(=O)(=O)N(CC(=O)NCc3ccc(CN)cc3)C[C@H](C)c3ccccc3)cc2)c1NC(=O)C(C)(C)C | 580 nM
C[C@@H](CN(CC(=O)NCc1ccc(CN)cc1)S(=O)(=O)c1ccc(-c2ccc(C(F)(F)F)cc2)cc1)c1ccccc1 | 440 nM
COc1cccc(-c2ccc(S(=O)(=O)N(CC(=O)NCc3ccc(CN)cc3)C[C@@H](C)c3ccccc3)cc2)c1 | 490 nM
C[C@@H](CN(CC(=O)NCc1ccc(CN)cc1)S(=O)(=O)c1ccc(C(F)(F)F)cc1)c1ccccc1 | 4200 nM
CCCCCc1ccc(S(=O)(=O)N(CC(=O)NCc2ccc(CN)cc2)C[C@H](C)c2ccccc2)cc1 | 870 nM
COc1ccccc1CCN(CC(=O)NCc1ccc(CN)cc1)S(=O)(=O)c1ccc(-c2ccncc2)s1 | 8940 nM
NCc1ccc(CNC(=O)CN(CCCc2ccccc2)S(=O)(=O)c2ccc(-c3ccccc3Cl)cc2)cc1 | 2500 nM
COc1cccc(-c2ccc(S(=O)(=O)N(CC(=O)NCc3ccc(CN)cc3)C[C@H](C)c3ccccc3)cc2)c1C(=O)N(C(C)C)C(C)C | 16300 nM
CSc1ccc(-c2ccc(S(=O)(=O)N(CC(=O)NCc3ccc(CN)cc3)C[C@H](C)c3ccccc3)cc2)cc1 | 1220 nM
Cc1c(Cl)cccc1-c1ccc(S(=O)(=O)N(CC(=O)NCc2ccc(CN)cc2)C[C@H](C)c2ccccc2)cc1 | 120 nM
COc1ccc(S(=O)(=O)N(CCc2ccccc2OC)CC(=O)NCc2ccc(CN)cc2)c([N+](=O)[O-])c1 | 5760 nM
